Source: patent US12428380B2 (PSYLO PTY LTD, priority 2023, dated 2025)

Columns and labels:
[1] = In vivo pharmacokinetics, plasma and brain exposure after IP dosing (Example 49a); conditions: male C57BL/6 mice, IP 10 mg/kg
C57BL/6J mice = assay: Biotelemetry and head-twitch response (HTR) experiments (Example 50a); conditions: male C57BL/6 mice, SC administration over several doses; for head-twitch response (HTR): FIG. 2; for tolerability (temperature, locomotor, HTR data): FIGS. 2-5
ICR mice = assay: Acute restraint stress - tail suspension test (Example 51a); format: in vivo, mouse; conditions: male ICR mice after 5 h acute restraint stress, IP, tested 10 min after treatment, FIGS. 6 and 7

Row | Structure (SMILES) | Plasma AUC0-last [1] [nM·h] | head-twitch response (HTR) (C57BL/6J mice) | tolerability (temperature, locomotor, HTR data) (C57BL/6J mice) | immobility time in tail suspension test (ICR mice)
1 | COc1ccc2[nH]cc(CCN(C)C)c2n1 | 1370 | not promoting increased head-twitch response | well-tolerated | 
2 | COc1cnc2[nH]cc(CCN(C)C)c2c1 |  | not promoting increased head-twitch response | well-tolerated | decrease the immobility time
3 | COc1ccnc2[nH]cc(CCN(C)C)c12 |  | not promoting increased head-twitch response | well-tolerated | 
4 | COc1nccc2[nH]cc(CCN(C)C)c12 | 1630 |  |  | 
